One substance from patent US20200131196A1 (Mount Tam Therapeutics, Inc., priority 2017, published 2020) can be followed below.

Series [1] deals with T1, TORC2 (Homo sapiens, UniProt P42345+P62942).
T1 construct: endogenous in cells; host or cells: PC3 cells
Nature of the series: TORC2 inhibition in PC3 cells (Western blot, phospho Akt (S473)). The format is cell-based. The protocol: (§1) Equal amounts of protein were resolved by SDS-PAGE and transferred to nitrocellulose membrane using the Invitrogen Nu-Page system. […] The following day, blots were washed 3 times in TBST, incubated for 2 hr with secondary antibodies (donkey anti rabbit hrp conjugated), and finally washed an additional 3 times in TBST. ECL Prime (Amersham) was used to detect the proteins of interest and ImageJ was used to quantify blots.

Series [2] can be described thus: Pharmacokinetics in male Sprague Dawley rats (intravenous and oral). The note with it: rat, in vivo. How it is done: Table 6 provides the pharmacokinetic parameters of Example (I) in male Sprague Dawley rats after a single bolus intravenous dose of 2 mg/kg. Table 7 provides the pharmacokinetic parameters of Example I in male Sprague Dawley rats after a single bolus oral dose of 10 mg/kg. In order to measure bioavailability in vivo, a compound may be administered to a test animal (e.g. mouse or rat) both intraperitoneally (i.p.) or intravenously (i.v.) and orally (p.o.) and blood samples are taken at regular intervals to examine how the plasma concentration of the drug varies over time. The time course of plasma concentration over time can be used to calculate the absolute bioavailability of the compound as a percentage using standard models. An example of a typical protocol is described below. […] These parameters are then analyzed by non-compartmental or compartmental methods to give a calculated percentage bioavailability, for an example of this type of method see Gallant-[…] et al, 2000 and […] et al, 1998, and references therein.

Series [3] concerns the target T2, TORC1 (Homo sapiens, UniProt P42345+P62942).
T2 construct: endogenous in cells; host or cells: PC3 cells
Nature of the series: TORC1 inhibition in PC3 cells (Western blot, phospho-rpS6). The class given is cell-based. The protocol: as §1

With “C37-[(1S,2R,4S,5R)-5-hyhroxybicyclo[2.2.1]heptane] rapamycin [reference compound]”, the IC50 is 11 nM in series [1] and 0.045 nM in series [3] (Western blot). Further, the oral bioavailability result in series [2] is given as “about one-half to about one-quarter lower than 0.47”. Moreover, the “TORC1/TORC2 Selectivity” value in series [3] was 244x.
